The numbers were not newly measured in paper PMC5771238 (Neuropharmacology, 2017), which cites them from elsewhere.

pIC50: −log10 of the molar value. Like-named read-outs stand apart in the source and are kept apart here.

This data set has as its target CB1 receptor. As to conditions: cited from earlier work.

Turning to `O=C(Nc1ccc(Cl)cc1)Nc1cccc(-c2cccc(N3CCCC3)n2)c1` [PSNCBAM-1, 1-(4-chlorophenyl)-3-{3-[6-(pyrrolidin-1-yl)pyridin-2-yl]phenyl}urea], the pIC50 runs as follows: (at 200 nM CP55,940, ref Horswill et al., 2007) 7.38; (ref Baillie et al., 2013) 8.57.

In general, pIC50 refers to the IC50 on a negative log10 scale, so that one unit is a factor of ten.
